Laboratory results: PMC10304876 (Molecules, 2023)
Where “and” joins values, the source holds several entries; their conditions need not be identical. Identical values can stand only once. Like-named read-outs stand apart in the source and are kept apart here.

Amino acid sequences for entries named in this document (tags omitted). A change or cut given only in a name is not applied to a line headed by its entry.
UniProt P35372, whole entry: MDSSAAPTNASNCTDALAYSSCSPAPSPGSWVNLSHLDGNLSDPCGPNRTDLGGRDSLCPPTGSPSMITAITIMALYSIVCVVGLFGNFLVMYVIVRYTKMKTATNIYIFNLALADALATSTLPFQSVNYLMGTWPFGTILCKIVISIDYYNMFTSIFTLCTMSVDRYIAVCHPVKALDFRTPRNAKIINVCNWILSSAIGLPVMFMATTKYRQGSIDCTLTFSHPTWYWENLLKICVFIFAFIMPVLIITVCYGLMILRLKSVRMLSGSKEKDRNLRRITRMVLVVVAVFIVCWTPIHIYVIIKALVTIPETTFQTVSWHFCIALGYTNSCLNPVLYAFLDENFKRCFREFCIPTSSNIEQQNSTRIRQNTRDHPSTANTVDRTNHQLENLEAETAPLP
UniProt P41145: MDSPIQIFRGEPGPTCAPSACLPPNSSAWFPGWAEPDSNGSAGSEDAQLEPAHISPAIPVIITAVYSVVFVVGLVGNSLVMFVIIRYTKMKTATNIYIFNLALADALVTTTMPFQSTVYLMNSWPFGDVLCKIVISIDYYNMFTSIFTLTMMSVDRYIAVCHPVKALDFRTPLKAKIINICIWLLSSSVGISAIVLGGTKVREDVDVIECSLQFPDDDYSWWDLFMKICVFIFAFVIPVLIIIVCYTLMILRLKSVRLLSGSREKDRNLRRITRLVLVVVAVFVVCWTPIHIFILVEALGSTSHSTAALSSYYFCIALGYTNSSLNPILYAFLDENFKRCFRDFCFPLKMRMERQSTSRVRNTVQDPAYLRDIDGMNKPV

Assays:
[1] = molecular target: T1, human μ-opioid receptor (OPRM1) (Homo sapiens, UniProt P35372)
[2] = molecular target: T1, human μ-opioid receptor (OPRM1); assay: cell-based; conditions: for Emax: OPRM1, read-out: MOR Agonist %Emax ± SEM; for EC50: MOR Agonist EC50 ± SEM (nM)
[3] = molecular target: T2, human κ-opioid receptor (OPRK1) (Homo sapiens, UniProt P41145); assay: cell-based
[4] = molecular target: T1, human μ-opioid receptor (OPRM1); conditions: for EC50: read-out: MOR Agonist EC50 ± SEM
[5] = molecular target: T2, human κ-opioid receptor (OPRK1)

| SMILES | MOR Antagonist %Imax ± SEM [1] | Emax [2] [%] | EC50 [3] [nM] | EC50 [2] | EC50 [4] [nM] | KOR Agonist EC50 ± SEM (nM) [5] | MOR Agonist EC50 ± SEM (nM) [4] |
| --- | --- | --- | --- | --- | --- | --- | --- |
| OC[C@H]1[C@@H]2CCC[C@@]1(c1cccc(O)c1)CCN2CCc1ccccc1 [Compound 15, 3-((1S,5R,9R)-9-(Hydroxymethyl)-2-phenethyl-2-azabicyclo[3.3.1]nonan-5-yl)phenol] | 13 ± 6 (96 ± 8%) | 26 | > 10000 | – | – | – | – |
| OC[C@H]1[C@H]2CCC[C@]1(c1cccc(O)c1)CCN2CCc1ccccc1 [Compound 11, 3-((1R,5S,9R)-9-(Hydroxymethyl)-2-phenethyl-2-azabicyclo[3.3.1]nonan-5-yl)phenol] | – | 99 | > 10000 | 2.05 nM and 2 nM | – | – | – |
| OCCC[C@@H]1[C@H]2CCC[C@]1(c1cccc(O)c1)CCN2CCc1ccccc1 [Compound 35] | – | 52 | – | – | 35 | – | – |
| OCC[C@H]1[C@@H]2CCC[C@@]1(c1cccc(O)c1)CCN2CCc1ccccc1 [Compound 21, 3-((1S,5R,9R)-9-(2-Hydroxyethyl)-2-phenethyl-2-azabicyclo[3.3.1]nonan-5-yl)phenol] | – | 85 | > 10000 | 0.91 nM and 0.9 nM | – | did not have any KOR agonist activity | – |
| OC[C@@H]1[C@H]2CCC[C@]1(c1cccc(O)c1)CCN2CCc1ccccc1 [Compound 10, 3-((1R,5S,9S)-9-(Hydroxymethyl)-2-phenethyl-2-azabicyclo[3.3.1]nonan-5-yl)phenol] | 91 ± 34 (173 ± 24%) | – | – | > 10000 nM | – | – | did not have any MOR agonist activity |
| OCCC[C@H]1[C@H]2CCC[C@]1(c1cccc(O)c1)CCN2CCc1ccccc1 [Compound 34, 3-((1R,5S,9R)-9-(3-Hydroxypropyl)-2-phenethyl-2-azabicyclo[3.3.1]nonan-5-yl)phenol] | – | 100 | > 10000 | 0.32 nM and 0.3 nM | – | – | – |
| OCCC[C@@H]1[C@@H]2CCC[C@@]1(c1cccc(O)c1)CCN2CCc1ccccc1 [Compound 39, 3-((1S,5R,9S)-9-(3-Hydroxypropyl)-2-phenethyl-2-azabicyclo[3.3.1]nonan-5-yl)phenol] | 1420 ± 265 (106 ± 11%) | 37 | – | 37 nM | – | – | – |
| OC[C@@H]1[C@@H]2CCC[C@@]1(c1cccc(O)c1)CCN2CCc1ccccc1 [Compound 16, 3-((1S,5R,9S)-9-(Hydroxymethyl)-2-phenethyl-2-azabicyclo [3.3.1]nonan-5-yl)phenol] | – | 54 | – | 203 nM | – | – | – |
| OCC[C@@H]1[C@@H]2CCC[C@@]1(c1cccc(O)c1)CCN2CCc1ccccc1 [Compound 22, 3-((1S,5R,9S)-9-(2-Hydroxyethyl)-2-phenethyl-2-azabicyclo[3.3.1]nonan-5-yl)phenol] | – | 83 | – | 35 nM | – | – | – |
| COC[C@H]1[C@H]2CCC[C@]1(c1cccc(O)c1)CCN2CCc1ccccc1 [Compound 41, 3-((1R,5S,9R)-9-(Methoxymethyl)-2-phenethyl-2-azabicyclo[3.3.1]nonan-5-yl)phenol] | – | 100 | > 10000 | 0.65 nM and 0.7 nM | – | – | – |
| OCCC[C@H]1[C@@H]2CCC[C@@]1(c1cccc(O)c1)CCN2CCc1ccccc1 [Compound 36] | – | 65 | > 10000 | – | 1.2 | – | – |
